{"source": "patent US10434213B2", "about": "“Controlled delivery system” (Wake Forest University Health Sciences, priority 2010, dated 2019)", "origin": "cited, not measured here", "details": "Geiger et al. 2003", "data": [{"substance": "Recombinant human BMP-2: Recombinant human bone morphogenetic protein 2, growth factor", "values": [{"measurement": "Isoelectric point", "value": 9}]}]}
